Laboratory results published in ChEMBL document CHEMBL4130501, “Nature-based molecules combined with rivastigmine: A symbiotic approach for the synthesis of new agents against Alzheimer's disease” (Eur J Med Chem, 2017).

Protein sequences, listed by entry. Tags and fused reporters are not part of them.
UniProt P06276, whole entry: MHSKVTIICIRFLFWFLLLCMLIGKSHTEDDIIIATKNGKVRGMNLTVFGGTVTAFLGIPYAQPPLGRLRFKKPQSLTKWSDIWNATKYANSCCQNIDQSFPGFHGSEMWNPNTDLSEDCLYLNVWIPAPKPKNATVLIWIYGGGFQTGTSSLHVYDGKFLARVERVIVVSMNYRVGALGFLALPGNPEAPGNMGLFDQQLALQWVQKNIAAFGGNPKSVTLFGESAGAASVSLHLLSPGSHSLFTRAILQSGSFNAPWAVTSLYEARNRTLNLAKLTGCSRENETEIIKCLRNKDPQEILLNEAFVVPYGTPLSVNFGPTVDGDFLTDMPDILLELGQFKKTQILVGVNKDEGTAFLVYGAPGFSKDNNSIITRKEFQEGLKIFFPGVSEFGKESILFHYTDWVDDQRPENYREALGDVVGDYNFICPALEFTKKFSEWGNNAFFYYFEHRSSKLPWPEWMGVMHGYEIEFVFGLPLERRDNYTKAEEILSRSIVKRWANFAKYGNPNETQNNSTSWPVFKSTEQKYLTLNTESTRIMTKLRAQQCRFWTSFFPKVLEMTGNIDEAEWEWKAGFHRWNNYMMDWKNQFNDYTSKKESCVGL

Target: Cholinesterase (Homo sapiens, UniProt P06276)
Assay: Inhibition of BuChE (unknown origin) pre-incubated for 20 mins before S-Butyrylthiocholine iodide substrate addition by Ellman reagent based spectrophotometry

SMILES: CCN(C)C(=O)Oc1cccc([C@H](C)N(C)C)c1 [RIVASTIGMINE]
- IC50: 678 nM
